# Apparent affinities of Ab-14 variants for a coronavirus HR2 peptide

Reference: Li et al. 2023, doi:10.1038/s41467-023-39022-2. File: FLAb, binding data.

Antigen: PDVDLGDISGINAS, a 14-residue peptide of the SARS-CoV-2 spike HR2 region.

Ab-14 is the parent antibody, in scFv form: VH, then a (GGGGS)3 linker, then VL. The heavy chain is unchanged in all variants.
VH: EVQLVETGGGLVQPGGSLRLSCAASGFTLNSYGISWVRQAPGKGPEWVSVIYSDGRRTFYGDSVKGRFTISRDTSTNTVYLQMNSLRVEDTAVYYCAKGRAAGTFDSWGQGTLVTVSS
VL: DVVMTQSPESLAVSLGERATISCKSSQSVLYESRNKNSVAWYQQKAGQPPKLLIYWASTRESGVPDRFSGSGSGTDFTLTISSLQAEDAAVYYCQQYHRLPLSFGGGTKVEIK

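The variants were designed computationally from a first round of random CDR variants and then made and measured. Their group label is 14L_GP_Gibbs (GP: Gaussian process model; Gibbs: Gibbs sampling; a sequence that several methods proposed may carry one label only). The scFvs were displayed on barcoded MATa yeast, the peptide on MATalpha yeast. The frequency of each diploid, read from paired DNA barcodes, reflects how well the two displayed proteins bind. Each replicate has its own calibration line, from reference interactions of the BCL2 family. Each pool was mated in six replicate cultures.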

The parent's light chain CDRs are KSSQSVLYESRNKNSVA, WASTRES, QQYHRLPLS; each variant's own CDRs replace them letter for letter. Numbers give log10(Kd / nM), so 0 is 1 nM and 3 is 1 µM. Smaller is tighter. A mean of the replicates is given; it leaves out those without a signal. An entry "n.d." has no value in the source: the pair was not observed among the diploids in that replicate. This suggests poor binding but is not conclusive. The range of this assay differs from that of the first round, and the authors advise against merging the two. In the paper, a design with two or fewer of six values counts as a poor binder. Three control strains display no target. For all light chain designs, 4% of the pairings with them gave a signal, with a median of 2.64 and one signal in twenty below 1.59, so weak values seen in few replicates may be background. For each scFv, signals with the empty controls are counted beside the result, with their mean in brackets.

CDR-L1,CDR-L2,CDR-L3,log10 Kd (nM) by replicate,mean log10 Kd (nM),empty controls
KLDGSDNYESRNKNSVA,EGSTRES,QAYHRLPLS,0.09 / 2.06 / 0.11 / 0.20 / 0.21 / 0.99,0.61,0/18
KLQYLVLYESRNKNSVA,GASTRLQ,QQYHRLPLS,-0.08 / -0.05 / 0.07 / -0.05 / -0.04 / 0.17,0.01,0/18
KSLQSVLDEERNDNSVA,WASHRLS,QQYHRLPLS,1.03 / 1.27 / 1.21 / n.d. / 2.34 / 2.01,1.57,0/18
KLMMSGLYESRNSNSVA,EASTREQ,QDYHRLPLS,0.74 / 0.23 / 0.15 / 0.22 / 0.21 / 0.27,0.30,2/18 (2.48)
KQQFSSGGGSRNKNSVA,EASTRES,QQYHRLPLS,0.46 / -0.16 / -0.02 / -0.04 / 0.15 / 0.23,0.10,0/18
KMSQSELYESQNSNNVA,HASQRMS,QQYHRLPLS,-0.17 / -0.30 / -0.14 / -0.43 / -0.51 / -0.22,-0.30,0/18
KSSASQEYEDRNKNSVA,HASTREQ,QQYHRLPLS,0.19 / -0.18 / -0.38 / -0.42 / -0.17 / -0.06,-0.17,0/18
KGSQWQLYESRNKNNVA,NASLREM,QQYHRLPLS,0.63 / 0.24 / 0.35 / 0.10 / -0.01 / 0.60,0.32,1/18 (3.29)
KLEQGVDMESRNKNSVA,HAQMRES,QQYHRLPLS,0.06 / -0.13 / 0.01 / -0.24 / -0.20 / 0.00,-0.08,1/18 (2.07)
KLSMSVMMESRNKNSVA,SANTRCE,QQYHRLPLS,-0.23 / 0.02 / -0.21 / -0.10 / 0.20 / 0.41,0.01,0/18
KQQQSEPGESRNMNSVA,HASQRES,QQYHRLPLS,0.42 / 0.24 / 0.29 / 0.14 / 0.20 / 0.37,0.28,2/18 (2.73)
KLQQADLYESRNKNSVA,QASTRSD,QCYHRLPLS,0.16 / 0.24 / 0.04 / -0.04 / 0.30 / 0.29,0.17,2/18 (2.51)
KWSQLVLEESRNKSSVA,NASTREE,QQYHRLPLS,0.68 / 1.43 / 0.13 / 0.37 / 1.39 / 0.72,0.78,1/18 (1.87)
KQQYGQDYSSRNDNSVA,DASTRES,QQYHRLPLS,0.01 / 0.02 / -0.36 / -0.47 / 0.04 / 0.01,-0.13,2/18 (2.66)
KLEQSVMLESRNVNAVA,SASQREL,QQYHRLPLS,0.04 / -0.17 / -0.37 / -0.31 / -0.39 / 0.10,-0.18,0/18
KMSMSVLYEDRHQNSVA,NASTRFM,QQYHRLPLS,1.04 / 0.78 / 0.48 / 0.67 / 0.83 / 0.69,0.75,2/18 (2.40)
KVDSAVLYEQRNKNSVA,DASQRES,QQYHRLPLS,-0.18 / -0.56 / -0.27 / -0.46 / -0.47 / -0.41,-0.39,2/18 (2.07)
KFMQSMPYESRNKNSVA,EASQREL,QQYHRLPLS,0.32 / 0.29 / 0.42 / 0.26 / 0.19 / 0.59,0.35,1/18 (1.87)
KLPAWQDYESRNKASVA,QASTRES,QQYHRLPLS,0.60 / 0.61 / 0.48 / 0.60 / 0.33 / 0.43,0.51,0/18
KLSSSWLMESRNMNSVA,QASQRLR,QQYHRLPLS,0.52 / 0.19 / 0.15 / 0.21 / 0.34 / 0.49,0.32,1/18 (2.88)
KLSFMVMEGSRNKNSVA,EASLREW,QQYHRLPLS,0.86 / 0.83 / 0.68 / 0.70 / 0.62 / 0.95,0.77,0/18
KVSQGFLYEERQKNSVA,NASQRES,QQYHRLPLS,0.54 / 1.32 / 0.42 / 0.29 / 0.34 / 0.55,0.57,0/18
KLSMLWPMLSRNHNSVA,SASTRES,QQYHRLPLS,0.59 / 0.68 / 0.63 / 1.00 / 0.91 / 0.99,0.80,1/18 (4.13)
KMSQSVDPLDRNKNSVA,NASTREM,QQYHRLPLS,-0.01 / 0.06 / -0.08 / 0.11 / 0.09 / 0.26,0.07,3/18 (2.87)
KLQQSEGYESRNQNSVA,AASQREE,QQYHRLPLS,0.16 / 0.00 / -0.33 / -0.20 / -0.03 / 0.16,-0.04,1/18 (2.33)
KIDISELGGSRNKNSVA,NASTREE,QQYHRLPLS,-0.23 / -0.26 / -0.14 / -0.27 / -0.19 / -0.19,-0.21,3/18 (3.16)
KLSQSGWMESRNKNNVA,EASQRES,QQYHRLPLS,-0.46 / -0.31 / -0.54 / -0.59 / -0.56 / -0.44,-0.48,0/18
KLDQSVQGGSRNKNSVA,HANQRES,QQYHRLPLY,0.81 / 0.53 / 0.74 / 0.45 / 0.64 / 0.51,0.61,3/18 (2.20)
KLQQSELYEERNSNSVA,NASLREL,QQYHRLPLS,0.41 / 0.05 / 0.21 / -0.04 / 0.27 / 0.48,0.23,0/18
KLQNSQEYESRMKNSVA,NASQREE,QQYHRLPLS,-0.16 / -0.53 / -0.49 / -0.38 / -0.19 / -0.32,-0.34,0/18
KFMYSVLYEERNQNSVA,GASQRES,QQYHRLPLS,1.19 / 1.39 / 1.86 / 1.26 / 0.94 / 1.10,1.29,0/18
LVSQQELYEQRNKNSVA,DASQRLS,QQYHRLPLS,0.13 / 0.07 / 0.05 / -0.10 / 0.07 / -0.05,0.03,2/18 (3.30)
KQSQQDDYQSRNKNQVA,NASTRYS,QQYHRLPLS,0.19 / 0.50 / 0.28 / 0.45 / 0.53 / 0.30,0.38,0/18
KVSNQADYEDRNKNAVA,DASTRES,QQYHRLPLS,0.25 / 0.28 / -0.04 / 0.13 / 0.03 / -0.01,0.11,4/18 (3.02)
KLQQADLYESRNANSVA,QASQRSS,QCYHRLPLS,n.d. / 0.91 / 1.98 / 1.16 / 1.25 / 0.93,1.24,0/18
KFQQSQLYESRQKNSVA,NASKRCS,QQYHRLPLK,n.d. / 0.78 / n.d. / 2.17 / 2.05 / 1.67,1.67,0/18
KVSQGVLDESRNKNSVA,WASTRES,QQYHRLPLS,0.55 / 0.69 / 0.73 / 0.77 / 0.58 / 0.81,0.69,3/18 (3.65)
KLQQGYWYESRNKNSVA,WASTREV,QQYHRLPLS,1.28 / 1.54 / 1.32 / 1.45 / 1.55 / 1.76,1.48,1/18 (3.19)
KLSQSTLYEMRNTNSVA,QASTRLQ,QQYHRLPLS,0.82 / 0.83 / 0.31 / 0.72 / 0.37 / 0.83,0.65,3/18 (2.99)
KMSQVYGYESTNSNSVA,DASTRED,QQYHRLPLS,0.19 / 0.24 / 0.36 / -0.12 / -0.07 / 0.02,0.10,0/18
VLQQSVLYESRNKNSVA,NASKREE,QQYHRLPLS,0.01 / -0.32 / -0.25 / -0.44 / -0.14 / -0.12,-0.21,0/18
KLQQGVLMESRNKNSVA,NAGQREE,QQYHRLPLS,-0.34 / -0.51 / -0.51 / -0.58 / -0.68 / -0.41,-0.51,1/18 (2.59)
KLSQSGLYGMRNKMSVA,QASQRES,QQYHRLPLS,1.31 / 0.77 / 0.54 / 0.25 / 1.17 / 1.01,0.84,0/18
KVYCGVDYEDRNKNQVA,HASQRES,QQYHRLPLS,0.26 / -0.12 / -0.13 / -0.05 / -0.23 / 0.13,-0.02,2/18 (2.26)
KLSQSMEYESRNWNSVA,QASTREH,QQYHRLPLM,0.73 / 1.26 / 0.70 / n.d. / 1.70 / n.d.,1.10,0/18
KSSGMDLYESRNGNSVA,DASTRSS,QQYHRLPLS,0.06 / 0.02 / -0.15 / -0.04 / 0.09 / 0.18,0.03,5/18 (3.47)

The last 7 entries again:

CDR-L1,CDR-L2,CDR-L3,log10 Kd (nM) by replicate,mean log10 Kd (nM),empty controls
KMSQVYGYESTNSNSVA,DASTRED,QQYHRLPLS,0.19 / 0.24 / 0.36 / -0.12 / -0.07 / 0.02,0.10,0/18
VLQQSVLYESRNKNSVA,NASKREE,QQYHRLPLS,0.01 / -0.32 / -0.25 / -0.44 / -0.14 / -0.12,-0.21,0/18
KLQQGVLMESRNKNSVA,NAGQREE,QQYHRLPLS,-0.34 / -0.51 / -0.51 / -0.58 / -0.68 / -0.41,-0.51,1/18 (2.59)
KLSQSGLYGMRNKMSVA,QASQRES,QQYHRLPLS,1.31 / 0.77 / 0.54 / 0.25 / 1.17 / 1.01,0.84,0/18
KVYCGVDYEDRNKNQVA,HASQRES,QQYHRLPLS,0.26 / -0.12 / -0.13 / -0.05 / -0.23 / 0.13,-0.02,2/18 (2.26)
KLSQSMEYESRNWNSVA,QASTREH,QQYHRLPLM,0.73 / 1.26 / 0.70 / n.d. / 1.70 / n.d.,1.10,0/18
KSSGMDLYESRNGNSVA,DASTRSS,QQYHRLPLS,0.06 / 0.02 / -0.15 / -0.04 / 0.09 / 0.18,0.03,5/18 (3.47)